Assay results as given in patent US12152051B2, “Cyclic dinucleotide analogue, pharmaceutical composition thereof, and application” (SHANGHAI DE NOVO PHARMATECH CO., LTD., priority 2018, dated 2024).

Chains of the proteins cited; added tags and fusions are not shown.
UniProt Q86WV6, whole entry: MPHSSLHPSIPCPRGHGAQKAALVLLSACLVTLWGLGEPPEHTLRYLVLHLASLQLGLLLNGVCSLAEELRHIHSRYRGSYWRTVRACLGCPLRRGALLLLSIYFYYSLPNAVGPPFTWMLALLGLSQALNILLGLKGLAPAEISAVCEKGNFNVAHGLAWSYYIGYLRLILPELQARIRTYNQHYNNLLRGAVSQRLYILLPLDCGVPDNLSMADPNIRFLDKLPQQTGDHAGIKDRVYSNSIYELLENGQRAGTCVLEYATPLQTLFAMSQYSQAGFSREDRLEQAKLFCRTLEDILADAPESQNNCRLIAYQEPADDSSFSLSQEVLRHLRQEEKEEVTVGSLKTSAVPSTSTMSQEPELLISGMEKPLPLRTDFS

Assays:
STING = STING (Homo sapiens, UniProt Q86WV6); test: STING IFNβ secretion assay (THP-1 cells, AlphaLISA IFN-β kit); conditions: 5 h incubation, secretion of IFN-β, tested form: di-ammonium salt
Description: Plated 40 uL THP-1 cells (ATCC) as 16000 cells/well in a 96 well-plate (Corning, 3596). 3-folds dilution compounds were added to appropriate wells. The compounds were diluted with buffer (RPMI1640+2 mM L-glutamine+1× non-essential amino acids+1 mM sodium pyruvate+0.5% Fetal bovine serum), and the top dose of the compound was 100 μM, minimum dose was 1.23 μM. After 5 h incubation, […] supernant was added to 384-well plate (Greiner, Cat: 784075) and the secretion of IFN-β was detected with AllphaLISA IFN-β kit(PerkinElmer, Cat:AL577C). 1× buffer was prepared to dilute the receptor and donor, and then 4 μL 20 μg/mL Anti-pIFNβ AlphaLISA receptor was added to every well. After 30 mins incubation at room temperature, 4 μL 2 nM biotinylated Anti-pIFNβ antibody was added to a 384 well-plate, incubated overnight at 4° C. 10 μL 40 µg/mL Streptavidin (SA) donor which was diluted with 1×buffer was added, and then incubated at room temperature for 30 min. Fluorescence was read with TECAN. The expressed level of IFN-β was proportional to the fluorescence intensity. Drew the curve with Graphpad Prism and analysed EC50 of the compounds.

THP-1 dual cells = test: Type 1 IFN activation assay (THP-1 dual cells, QUANTI-Luc); conditions: PMA-treated THP-1 dual cells, compound in digitonin PB buffer 30 min, then 24 h; expression level of IFN; tested form: di-ammonium salt
Description: Plated THP-1 dual cells (Invivogen) as 100000 cells/well in a 96 well-plate, and then phorbol 12-myristate 13-acetate (PMA) was added and the final concentration of PMA was 30 ng/mL. After 24 h incubation, cells were washed with fresh medium for twice, and 3-folds dilution compounds were added to appropriate wells. The compounds were diluted by PB buffer (50 mM HEPES, 100 mM KCl, 3 mM MgCl2, 0.1 mM DTT, 85 mM sucrose, 1 mM ATP, 0.1 mM GTP, 0.2% o bovine serum albumin and 5 μg/ml digitonin) and the top dose was 10 μM, minimum dose was 0.0015 μM. The cells were incubated for 30 min, and then washed with fresh medium for twice again. Add fresh medium, and the cells were incubated for additional 24 h. After incubation, 10 ul supermant and 50 μL QUANTI-Luc (Invivogen) was add to a 96 well-plate, fluorescence was read with TECAN. The express level of IFN was proportional to the fluorescence intensity. Drew the curve with Graphpad Prism and analyse EC50 of the compounds.

Row | SMILES | EC50 (STING) [µM] | EC50 (THP-1 dual cells) [µM]
1 | CO[C@H]1[C@H]2OP(=O)(S)OC[C@H]3O[C@@H](n4cnc5c(N)ncnc54)[C@H](F)[C@@H]3OP(=O)(S)OC[C@H]1O[C@H]2n1c(=O)sc2c(N)ncnc21 (single isomer, unassigned) [6-p2] | 58.1 | 1.06
2 | CO[C@H]1[C@H]2OP(=O)(S)OC[C@H]3O[C@@H](n4cnc5c(N)ncnc54)[C@H](F)[C@@H]3OP(=O)(S)OC[C@H]1O[C@H]2n1c(=O)sc2c(N)ncnc21 (single isomer, unassigned) [6-p4] | 9.4 | 0.311
3 | CO[C@H]1[C@H]2OP(=O)(S)OC[C@H]3O[C@@H](n4cnc5c(N)ncnc54)[C@H](F)[C@@H]3OP(=O)(S)OC[C@H]1O[C@H]2n1c(=O)sc2c(N)ncnc21 (single isomer, unassigned) [Compound 6-p3] | 9.84 | 0.429
4 | Nc1ncnc2c1ncn2[C@@H]1O[C@@H]2COP(=O)(S)O[C@@H]3[C@H](O)[C@@H](COP(=O)(S)O[C@H]2[C@H]1O)O[C@H]3n1c(=O)sc2c(N)ncnc21 (some centres unmarked) [Compound 2-p1] | 47.6 | 2.08
